From patent publication US7605165B2, “Phenylalanine derivatives” (Ajinomoto Co., Inc., priority 2002, dated 2009)

Sequences of proteins named here, by UniProt entry; tags and fusion partners are left off. Residues count along the entry.
UniProt P05556, 21-798 limits assumed: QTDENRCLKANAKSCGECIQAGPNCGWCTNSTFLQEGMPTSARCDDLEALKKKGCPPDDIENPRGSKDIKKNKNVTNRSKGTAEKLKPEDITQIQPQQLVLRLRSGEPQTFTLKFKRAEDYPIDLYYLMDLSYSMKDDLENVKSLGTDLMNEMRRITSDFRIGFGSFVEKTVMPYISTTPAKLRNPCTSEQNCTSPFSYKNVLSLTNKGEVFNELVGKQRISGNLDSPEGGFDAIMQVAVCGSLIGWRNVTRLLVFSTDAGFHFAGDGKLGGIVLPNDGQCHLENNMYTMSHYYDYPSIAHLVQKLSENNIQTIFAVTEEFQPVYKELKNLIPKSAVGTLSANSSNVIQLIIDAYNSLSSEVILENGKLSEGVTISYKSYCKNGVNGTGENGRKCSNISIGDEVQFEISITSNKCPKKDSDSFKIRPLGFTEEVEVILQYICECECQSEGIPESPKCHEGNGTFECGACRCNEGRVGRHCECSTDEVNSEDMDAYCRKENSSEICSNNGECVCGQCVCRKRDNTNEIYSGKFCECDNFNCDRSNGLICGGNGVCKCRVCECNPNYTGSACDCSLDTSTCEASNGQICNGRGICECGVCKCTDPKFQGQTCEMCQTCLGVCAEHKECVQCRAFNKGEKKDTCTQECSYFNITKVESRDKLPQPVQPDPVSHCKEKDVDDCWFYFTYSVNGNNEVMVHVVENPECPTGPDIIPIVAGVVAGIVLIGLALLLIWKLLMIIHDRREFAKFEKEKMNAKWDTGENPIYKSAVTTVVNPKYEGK
UniProt P13612, 34-1032 limits assumed: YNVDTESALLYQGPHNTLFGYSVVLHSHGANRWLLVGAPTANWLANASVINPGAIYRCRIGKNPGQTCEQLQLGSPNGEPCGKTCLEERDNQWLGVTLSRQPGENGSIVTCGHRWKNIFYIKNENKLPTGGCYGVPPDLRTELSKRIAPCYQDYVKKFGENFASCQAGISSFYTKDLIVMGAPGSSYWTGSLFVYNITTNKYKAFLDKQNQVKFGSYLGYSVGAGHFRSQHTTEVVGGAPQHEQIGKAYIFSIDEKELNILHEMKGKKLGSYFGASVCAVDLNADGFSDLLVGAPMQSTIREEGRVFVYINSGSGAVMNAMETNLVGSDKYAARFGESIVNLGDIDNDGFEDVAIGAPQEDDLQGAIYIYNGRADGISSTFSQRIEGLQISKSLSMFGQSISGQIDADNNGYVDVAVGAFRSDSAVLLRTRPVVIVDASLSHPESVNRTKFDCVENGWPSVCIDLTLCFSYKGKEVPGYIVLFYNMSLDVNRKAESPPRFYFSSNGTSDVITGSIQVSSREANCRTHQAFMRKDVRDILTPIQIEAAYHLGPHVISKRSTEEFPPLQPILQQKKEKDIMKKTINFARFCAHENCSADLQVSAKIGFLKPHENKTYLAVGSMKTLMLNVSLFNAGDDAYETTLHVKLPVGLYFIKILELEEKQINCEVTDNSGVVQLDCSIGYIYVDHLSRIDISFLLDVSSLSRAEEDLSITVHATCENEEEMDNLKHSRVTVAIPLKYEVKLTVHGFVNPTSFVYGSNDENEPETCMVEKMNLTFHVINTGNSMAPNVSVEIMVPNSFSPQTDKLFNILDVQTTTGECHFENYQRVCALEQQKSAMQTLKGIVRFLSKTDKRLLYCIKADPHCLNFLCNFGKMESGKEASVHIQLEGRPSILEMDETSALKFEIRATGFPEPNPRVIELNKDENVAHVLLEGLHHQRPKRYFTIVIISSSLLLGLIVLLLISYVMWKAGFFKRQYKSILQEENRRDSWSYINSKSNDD
UniProt P26010, 20-798 limits assumed: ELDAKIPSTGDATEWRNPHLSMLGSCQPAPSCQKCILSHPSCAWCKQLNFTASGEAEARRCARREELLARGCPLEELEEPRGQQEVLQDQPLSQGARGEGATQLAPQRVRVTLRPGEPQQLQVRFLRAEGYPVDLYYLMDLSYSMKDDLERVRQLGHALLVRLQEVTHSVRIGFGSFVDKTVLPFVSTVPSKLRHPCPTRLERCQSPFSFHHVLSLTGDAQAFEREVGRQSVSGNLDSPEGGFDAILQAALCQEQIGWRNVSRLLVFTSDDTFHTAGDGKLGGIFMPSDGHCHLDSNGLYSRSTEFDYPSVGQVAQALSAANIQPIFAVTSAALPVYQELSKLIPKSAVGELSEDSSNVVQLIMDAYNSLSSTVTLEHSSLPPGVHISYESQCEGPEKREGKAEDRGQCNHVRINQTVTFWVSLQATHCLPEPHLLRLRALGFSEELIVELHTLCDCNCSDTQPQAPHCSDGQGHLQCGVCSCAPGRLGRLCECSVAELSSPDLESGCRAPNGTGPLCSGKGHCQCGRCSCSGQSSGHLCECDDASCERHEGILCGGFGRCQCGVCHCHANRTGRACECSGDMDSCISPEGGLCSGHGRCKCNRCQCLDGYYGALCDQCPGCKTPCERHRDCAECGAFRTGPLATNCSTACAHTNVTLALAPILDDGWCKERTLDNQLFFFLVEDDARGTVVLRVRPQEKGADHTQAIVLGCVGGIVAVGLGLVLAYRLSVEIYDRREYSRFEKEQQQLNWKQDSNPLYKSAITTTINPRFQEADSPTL

Legend:
integrin α4β1 = integrin α4β1 (Homo sapiens, UniProt P05556+P13612); test: Assessment of VCAM-1/α4β1 binding antagonist activity (Jurkat cells binding to VCAM-1); conditions: read-out: integrin VCAM/α4 binding antagonistic activity (IC50) α4β1; Jurkat human T cells binding to recombinant human VCAM-1
integrin α4β7 = integrin α4β7 (Homo sapiens, UniProt P13612+P26010); test: Assessment of VCAM-1/α4β7 binding antagonistic activity (RPMI-8866 cells binding to VCAM-1); conditions: read-out: integrin VCAM/α4 binding antagonistic activity (IC50) α4β7; RPMI-8866 human B lymphoma cells binding to recombinant human VCAM-1, binding buffer with 4 mM MnCl2

IC50 (integrin α4β1) | IC50 (integrin α4β7) | SMILES
183 nM | 24 nM | CN1c2ccc([N+](=O)[O-])cc2C(=O)N(c2ccc(C[C@H](NC(=O)c3c(Cl)cccc3Cl)C(=O)O)cc2)[S+]1[O-] (stereo partly shown)
180 nM | 12 nM | O=C(N[C@@H](Cc1ccc(-n2c(=O)c3ccccc3n(CCc3ccccc3)c2=O)cc1)C(=O)O)c1c(Cl)cccc1Cl
840 nM | 20 nM | O=C(N[C@@H](Cc1ccc(-n2c(=O)c3ccccc3n(-c3ccccc3)c2=O)cc1)C(=O)O)c1c(Cl)cccc1Cl
1200 nM | 1.6 nM | CCOc1nc2ccc(OC)cc2c(=O)n1-c1ccc(C[C@H](NC(=O)c2c(Cl)cccc2Cl)C(=O)O)cc1
27 nM | 1.6 nM | Cn1c(=O)n(-c2ccc(C[C@H](NC(=O)c3c(Cl)cccc3Cl)C(=O)O)cc2)c(=O)c2cc(Br)ccc21
